The entries are a selection whose mix differs from that of the whole data set. Activity calls are given as the source filed them.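 Rule for the calls: active = inhibition above a per-plate cutoff, the plate's mean sample inhibition plus 3 SD (cut at about 24% in these data); inactive = the rest.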
Test: nonselective inhibitors of ATP calcium response in CHO-K1, primary screen, counter-screen for M1 antagonist project, cell-based, Fluo-8 calcium fluorescence, full deck, 1536-well (AID 602250);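 note: 0% = DMSO plus EC80 ATP and 100% = DMSO alone without ATP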
Conditions: CHO-K1 parental, ATP-induced calcium, Fluo-8 fluorescence; at 3 µM; stronger effect = higher value
With `CCOC(=O)N1CCC(Nc2ccc(C)cc2)CC1` the inhibition was inactive: 6.51%.
For `COc1cccc(C(c2nnnn2C(C)(C)C)N2CCC(n3c(=O)[nH]c4ccccc43)CC2)c1OC` (stereo not drawn), the inhibition was inactive: 16.9%.
For `N/C(=N\O)c1c(N)no[n+]1[O-]`, the inhibition was inactive: -16.9%.
In the case of `O=c1[nH]c2ccccc2n1C1CCN(C(c2cccs2)c2nnnn2C2CCCC2)CC1` (stereo not drawn), the inhibition is reported as inactive: -14.8%.
With `O=C(OC1CN2CCC1CC2)C1c2ccccc2C=Cc2ccccc21` (stereo not drawn) the inhibition was inactive: -7.79%.
For `CCCCn1nnnc1C(c1cccc(OC)c1OC)N1CCC(n2c(=O)[nH]c3ccccc32)CC1` (stereo not drawn), the inhibition was inactive: 3.15%.
For `COc1cc(C(=O)NCC2(N3CCOCC3)CCCCC2)cc(OC)c1C`, the inhibition was inactive: -10.2%.
For `CCCCn1nnnc1C(c1ccccc1)N1CCC(n2c(=O)[nH]c3ccccc32)CC1` (stereo not drawn), the inhibition was inactive: 9.99%.
With `O=C(NCC1(N2CCOCC2)CCCCC1)c1cc(Br)ccc1Cl` the inhibition was inactive: -21.7%.
With `O=c1[nH]c2ccccc2n1C1CCN(C(c2cccs2)c2nnnn2C2CCCCC2)CC1` (stereo not drawn) the inhibition was inactive: -10.1%.
For `O=c1[nH]c2ccccc2n1C1CCN(C(c2ccnc3ccccc23)c2nnnn2C2CCCC2)CC1` (stereo not drawn), the inhibition was inactive: -17.4%.
For `COc1ccc(C(=O)NCC2(N3CCOCC3)CCCCC2)cc1OC`, the inhibition was inactive: -12.8%.
For `CN(C)C1(CNC(=O)c2cccc(C#N)c2)CCCCC1`, the inhibition was inactive: -10.4%.
For `O=c1[nH]c2ccccc2n1C1CCN(C(c2ccccc2)c2nnnn2C2CCCC2)CC1` (stereo not drawn), the inhibition was inactive: -21.4%.
For `CCCN1CCC(Nc2cc(OC)cc(OC)c2)CC1`, the inhibition was inactive: -13.3%.
With `Cc1cc(N(CCCl)CCCl)ccc1C=O` the inhibition was inactive: -10.8%.
In the case of `c1ccc(CN2CCC(Nc3ccccc3)CC2)cc1`, the inhibition is reported as inactive: -9.03%.
For `CC(C)(C)n1nnnc1C(c1cccc2ccccc12)N1CCC(n2c(=O)[nH]c3ccccc32)CC1` (stereo not drawn), the inhibition was inactive: -14.2%.
With `N#Cc1ccc(C(=O)NCC2(N3CCCCC3)CCCCC2)cc1` the inhibition was inactive: -7.99%.
In the case of `CC(C)(C)OC(=O)N1CCC(N(C(=O)c2ccccc2)c2ccc(Cl)cc2)CC1`, the inhibition is reported as inactive: -18.9%.
In the case of `COc1ccc(C(c2nnnn2C2CCCCC2)N2CCC(n3c(=O)[nH]c4ccccc43)CC2)cc1` (stereo not drawn), the inhibition is reported as inactive: 6.47%.
In the case of `CCN1CCC(Nc2cccc(F)c2)CC1`, the inhibition is reported as inactive: -2.33%.
For `CC(C)(C)n1nnnc1C(c1ccnc2ccccc12)N1CCC(n2c(=O)[nH]c3ccccc32)CC1` (stereo not drawn), the inhibition was inactive: -2.63%.
For `Cc1ccccc1NC1(C#N)CCN(Cc2ccccc2)CC1`, the inhibition was inactive: -3.63%.
In the case of `CN(C)c1ccc(C(=O)NCC2(N3CCCCC3)CCCCC2)cc1`, the inhibition is reported as inactive: -19.8%.
For `Cn1c(=O)[nH]cc(N(CCCl)CCCl)c1=O`, the inhibition was inactive: -3.32%.
In the case of `O=C(NCC1(N2CCCCC2)CCCCC1)c1ccco1`, the inhibition is reported as inactive: -12.6%.
For `CCC(c1nnnn1C1CCCCC1)N1CCC(n2c(=O)[nH]c3ccccc32)CC1` (stereo not drawn), the inhibition was inactive: -13.3%.
With `COc1cccc(C(c2nnnn2C2CCCCC2)N2CCC(n3c(=O)[nH]c4ccccc43)CC2)c1OC` (stereo not drawn) the inhibition was inactive: 0.77%.
With `CC(=O)N(c1ccccc1)C1CCNCC1` the inhibition was inactive: -11.9%.
For `COc1cc(OC)cc(C(=O)NCC2(N3CCCCC3)CCCCC2)c1`, the inhibition was inactive: -20.4%.
For `O=c1[nH]c2ccccc2n1C1CCN(C(c2ccnc3ccccc23)c2nnnn2C2CCCCC2)CC1` (stereo not drawn), the inhibition was inactive: -23%.
In the case of `Fc1ccccc1NC1CCN(Cc2ccccc2)CC1`, the inhibition is reported as inactive: -6.44%.
In the case of `Cc1ccc(C(=O)NCC2(N3CCCCC3)CCCCC2)o1`, the inhibition is reported as inactive: 0.21%.
For `Cc1ccc(NC2(C#N)CCN(Cc3ccccc3)CC2)cc1`, the inhibition was inactive: -4.64%.
In the case of `COc1cccc(C(c2nnnn2C2CCCC2)N2CCC(n3c(=O)[nH]c4ccccc43)CC2)c1OC` (stereo not drawn), the inhibition is reported as inactive: -16.8%.
With `COc1cc(OC)cc(C(=O)NCC2(N3CCOCC3)CCCCC2)c1` the inhibition was inactive: -20.6%.
With `COc1cccc(C(=O)N(c2cc(C)cc(C)c2)C2CCN(C(=O)OC(C)(C)C)CC2)c1` the inhibition was inactive: -3.49%.
With `CCC(CO)(C(=O)OC1CN2CCC1CC2)c1ccccc1` (stereo not drawn) the inhibition was inactive: 22.2%.
For `CN1CCC(Nc2ccc(Cl)cc2)CC1`, the inhibition was inactive: -3.23%.
For `CN1CCC(Nc2ccc(F)c(Cl)c2)CC1`, the inhibition was inactive: -6.2%.
For `CCOc1ncccc1C(=O)NCC1(N2CCOCC2)CCCCC1`, the inhibition was inactive: -0.53%.
For `O=C(O)C1(Nc2ccccc2)CCN(Cc2ccccc2)CC1`, the inhibition was inactive: -9.41%.
For `NN(c1ccccc1)C1CCN(CCc2ccccc2)CC1`, the inhibition was inactive: -5.25%.
For `CC(C)(C)OC(=O)N1CCC(Nc2ccccc2)CC1`, the inhibition was inactive: -7.42%.
For `O=c1[nH]c2ccccc2n1C1CCN(C(c2cc3ccccc3o2)c2nnnn2C2CCCC2)CC1` (stereo not drawn), the inhibition was inactive: -25.2%.
In the case of `CCCOc1ccc(C(=O)NCC2(N(C)C)CCCCC2)cc1`, the inhibition is reported as inactive: -12.4%.
For `Cc1cc(C)cc(N(C(=O)c2ccccc2)C2CCN(C(=O)OC(C)(C)C)CC2)c1`, the inhibition was inactive: -15.3%.
In the case of `O=C(NCC1(N2CCCCC2)CCCCC1)c1ccc(Cl)nc1`, the inhibition is reported as inactive: 1.76%.
In the case of `O=c1[nH]c2ccccc2n1C1CCN(C(c2ccccc2OC(F)(F)F)c2nnnn2C2CCCCC2)CC1` (stereo not drawn), the inhibition is reported as inactive: 2.72%.
With `O=C(NCC1(N2CCOCC2)CCCCC1)c1cc2ccccc2o1` the inhibition was inactive: -3.21%.
In the case of `COc1ccc(Cl)cc1C(=O)NCC1(N2CCOCC2)CCCCC1`, the inhibition is reported as inactive: -25.8%.
In the case of `N#CC1(Nc2ccccc2)CCN(Cc2ccccc2)CC1`, the inhibition is reported as inactive: -9.45%.
In the case of `O=C(NCC1(N2CCCCC2)CCCCC1)c1ccc(Cl)s1`, the inhibition is reported as inactive: -17.4%.
With `O=C(OC1CN2CCC1CC2)C1c2ccccc2Oc2ccccc21` (stereo not drawn) the inhibition was inactive: -6.29%.
In the case of `O=c1[nH]c2ccccc2n1C1CCN(C(c2cc3ccccc3o2)c2nnnn2C2CCCCC2)CC1` (stereo not drawn), the inhibition is reported as inactive: -9.41%.
For `CCCCn1nnnc1C(c1ccc(OC)cc1)N1CCC(n2c(=O)[nH]c3ccccc32)CC1` (stereo not drawn), the inhibition was inactive: -20.1%.
With `CCOC(=O)N1CCC(Nc2ccc(OC)cc2)CC1` the inhibition was inactive: -11.3%.
In the case of `COc1ccc(C(=O)NCC2(N3CCCCC3)CCCCC2)c(OC)c1OC`, the inhibition is reported as inactive: -7.03%.
With `CC(C)(C)OC(=O)N1CCC(N(C(=O)c2ccccc2)c2ccc(F)cc2)CC1` the inhibition was inactive: -9.82%.
In the case of `CCC(c1nnnn1C1CCCC1)N1CCC(n2c(=O)[nH]c3ccccc32)CC1` (stereo not drawn), the inhibition is reported as inactive: -11.5%.
For `COc1ccc(C(=O)NCC2(N3CCCCC3)CCCCC2)cc1`, the inhibition was inactive: -8.14%.
For `CCCCn1nnnc1C(CC)N1CCC(n2c(=O)[nH]c3ccccc32)CC1` (stereo not drawn), the inhibition was inactive: -6.47%.
With `O=C(NCC1(N2CCCCC2)CCCCC1)c1cccs1` the inhibition was inactive: 3.82%.
For `CCCCn1nnnc1C(c1cccs1)N1CCC(n2c(=O)[nH]c3ccccc32)CC1` (stereo not drawn), the inhibition was inactive: 21.9%.
In the case of `O=C(NCC1(N2CCCCC2)CCCCC1)c1ccc(=O)[nH]c1`, the inhibition is reported as inactive: -6.51%.
For `Cc1cccc(NC2(C#N)CCN(Cc3ccccc3)CC2)c1`, the inhibition was inactive: -21.6%.
In the case of `CSc1ccccc1C(=O)NCC1(N2CCCCC2)CCCCC1`, the inhibition is reported as inactive: -6.22%.
In the case of `O=c1[nH]c2ccccc2n1C1CCN(C(c2ccccc2)c2nnnn2C2CCCCC2)CC1` (stereo not drawn), the inhibition is reported as inactive: -2.47%.
With `CCOC(=O)N1CCC(Nc2cccc(C)c2)CC1` the inhibition was inactive: -7.63%.
For `COc1cc(C(=O)NCC2(N(C)C)CCCCC2)ccc1OC(F)F`, the inhibition was inactive: 12.4%.
For `O=c1[nH]c2ccccc2n1C1CCN(C(c2cccc3ccccc23)c2nnnn2C2CCCC2)CC1` (stereo not drawn), the inhibition was inactive: -3.29%.
For `O=C1CCN(Cc2ccccc2)CC1`, the inhibition was inactive: -12.7%.
With `CC(C)(C)n1nnnc1C(c1ccccc1)N1CCC(n2c(=O)[nH]c3ccccc32)CC1` (stereo not drawn) the inhibition was inactive: 9.27%.
For `CCOc1ccc(C)cc1CN(CCCl)CCCl`, the inhibition was inactive: -0.04%.
For `COc1ccc(NC2CCN(CCc3ccccc3)CC2)c(OC)c1`, the inhibition was inactive: -28.4%.
With `CCOC(=O)N1CCC(Nc2ccc(F)cc2)CC1` the inhibition was inactive: -1.92%.
For `O=P1(N(CCCl)CCCl)SCCCS1`, the inhibition was inactive: -2.77%.
With `CCCCn1nnnc1C(c1cc2ccccc2o1)N1CCC(n2c(=O)[nH]c3ccccc32)CC1` (stereo not drawn) the inhibition was inactive: -23.3%.
For `CCCCOc1ccc(C(=O)NCC2(N3CCOCC3)CCCCC2)cc1`, the inhibition was inactive: -10.9%.
With `O=C(NCC1(N2CCCCC2)CCCCC1)c1ccc(F)cc1` the inhibition was inactive: -1.51%.
In the case of `O=C(NCC1(N2CCCCC2)CCCCC1)c1cccc(C(F)(F)F)c1`, the inhibition is reported as inactive: -20.4%.
With `COc1cc(C(=O)NCC2(N3CCCCC3)CCCCC2)ccc1OC(F)F` the inhibition was inactive: -7.14%.
In the case of `O=C(NCC1(N2CCOCC2)CCCCC1)c1cc(=O)[nH]c2ccccc12`, the inhibition is reported as inactive: -13.4%.
In the case of `CN1CCN(CCOC(=O)C(O)(c2ccccc2)c2ccccc2)CC1`, the inhibition is reported as inactive: -0.09%.
With `COc1ccc(NC2CCN(C(=O)OC(C)(C)C)CC2)cc1` the inhibition was inactive: -13.3%.
With `CC(C)c1ccc(C(=O)NCC2(N3CCOCC3)CCCCC2)cc1` the inhibition was inactive: -3.91%.
With `CCCCn1nnnc1C(c1cccc2ccccc12)N1CCC(n2c(=O)[nH]c3ccccc32)CC1` (stereo not drawn) the inhibition was inactive: -30.9%.
For `O=C(NCC1(N2CCCCC2)CCCCC1)c1ccc(OC(F)F)cc1`, the inhibition was inactive: -9.52%.
For `CC(C)(C)n1nnnc1C(c1ccccc1OC(F)(F)F)N1CCC(n2c(=O)[nH]c3ccccc32)CC1` (stereo not drawn), the inhibition was inactive: -20.4%.
With `O=c1[nH]c2ccccc2n1C1CCN(C(c2ccccc2OC(F)(F)F)c2nnnn2C2CCCC2)CC1` (stereo not drawn) the inhibition was inactive: -6.59%.
For `N#CC1(Nc2ccccc2)CCN(CCc2ccccc2)CC1`, the inhibition was inactive: -14.2%.
For `CCN1CCC(Nc2ccc(Cl)cc2)CC1`, the inhibition was inactive: -6.09%.
With `CSc1ccc(C(=O)NCC2(N3CCOCC3)CCCCC2)cc1` the inhibition was inactive: -9.82%.
For `O=C(NCC1(N2CCCCC2)CCCCC1)c1cccc([N+](=O)[O-])c1`, the inhibition was inactive: -18.8%.
With `CN1CCC(Nc2cccc(F)c2)CC1` the inhibition was inactive: -4.32%.
In the case of `O=C(NCC1(N2CCCCC2)CCCCC1)c1cncc(Br)c1`, the inhibition is reported as inactive: -15.6%.
For `COc1ccc(C(c2nnnn2C2CCCC2)N2CCC(n3c(=O)[nH]c4ccccc43)CC2)cc1` (stereo not drawn), the inhibition was inactive: 1.24%.
With `CCCOc1ccc(C(=O)NCC2(N(C)C)CCCCC2)cc1OC` the inhibition was inactive: -17.5%.
With `Cc1ccc(C(=O)NCC2(N(C)C)CCCCC2)o1` the inhibition was inactive: 7.56%.
In the case of `CC(C)c1ccc(NC2CCN(C(=O)OC(C)(C)C)CC2)cc1`, the inhibition is reported as inactive: -9.7%.
With `CCCCn1nnnc1C(c1ccccc1OC(F)(F)F)N1CCC(n2c(=O)[nH]c3ccccc32)CC1` (stereo not drawn) the inhibition was inactive: -34%.
With `CN(C)c1cccc(C(=O)NCC2(N3CCCCC3)CCCCC2)c1` the inhibition was inactive: -8.84%.
For `COc1ccc(CN(CCCl)CCCl)cc1Cl`, the inhibition was inactive: -6.77%.
In the case of `CCC(c1nnnn1C(C)(C)C)N1CCC(n2c(=O)[nH]c3ccccc32)CC1` (stereo not drawn), the inhibition is reported as inactive: -15.8%.
For `O=C(NCC1(N2CCOCC2)CCCCC1)c1cc(F)c(F)cc1Cl`, the inhibition was inactive: -11.4%.
For `COc1cc(OC)c(C(=O)NCC2(N(C)C)CCCCC2)cc1OC`, the inhibition was inactive: 4.61%.
In the case of `CCCCn1nnnc1C(c1ccnc2ccccc12)N1CCC(n2c(=O)[nH]c3ccccc32)CC1` (stereo not drawn), the inhibition is reported as inactive: 0.99%.

From PubChem BioAssay AID602250 (The Scripps Research Institute Molecular Screening Center, 2012)
